Laboratory results: patent publication US20090022659A1 (ALDERBIO, published 2009)

By UniProt entry, the sequences of proteins in these tests, tags left out. Residues count along the entry.
UniProt P01375, 77-233 limits assumed: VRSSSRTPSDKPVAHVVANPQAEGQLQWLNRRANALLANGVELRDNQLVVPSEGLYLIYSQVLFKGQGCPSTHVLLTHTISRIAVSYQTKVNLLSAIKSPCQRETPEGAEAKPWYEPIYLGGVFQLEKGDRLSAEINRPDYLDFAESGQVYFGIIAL

Target: Tumor Necrosis Factor-alpha (TNF-α), R&D systems 210-TA / 210-TA-CF (human) (UniProt P01375)

Question: For Remicade® (infliximab) (antibody), which EC50 (read off the curve); OD versus antibody concentration (the assay is not named for this figure) is on record?
Answer: 0.01 µg/mL
